# Test results taken from ChEMBL document CHEMBL1138079.
# What was measured:
# [1] = Half life in phosphate buffer at pH 7 at 37 degC assessed as reduction by Escherichia coli nitroreductase by NR assay
# SK-OV-3 [2] = test: Ratio for antiproliferative activity against NTR- SKOV3 cells to NTR+ SKOV3 cells after 18 hrs
# SK-OV-3 [3] = test: Antiproliferative activity against NTR expressing human SKOV3 cells after 18 hrs; type: functional, cell-based
# Procedure, shortened: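 SKOV3 ovarian carcinoma cells stably transduced with a retroviral NTR vector and selected with 1 mg/mL G418, compared with parental SKOV3. Plated at 20 000 cells/well and allowed to adhere 24 h. Prodrug range given for 18 h, then replaced with drug-free medium. MTT survival read 2 days later. Ratio is NTR⁻/NTR⁺ IC50.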
compound,measurement,setting,value
O=[N+]([O-])c1ccc(C2CCOP(=O)(N(CCCl)CCCl)O2)cc1 (stereo not drawn),T1/2,[1],4.8 min and 7.3 min
same,Ratio,SK-OV-3 [2],200 and > 230
same,IC50,SK-OV-3 [3],2.5 µM and 4.3 µM

# Several values for one entry are separate records, joined by “and”; a condition that tells them apart may be missing. Identical values can stand only once.
